Only a part is listed here, and it is no random draw. Inconclusive results are not listed. For some of these results: Results with a measured potency or affinity are listed apart. Calls of active or inactive are those of the source. Unless noted, the call rests on the fitted dose curve; in most records, active means well fitted curve in the direction sought with a large enough effect; inconclusive means small, poorly fitted or top-dose-only effect, or another doubt; inactive means no such curve, though single readings can be large; an effect the other way counts as inactive or inconclusive.
What was measured:
[1] = molecular target: Peroxisome proliferator-activated receptor delta (Homo sapiens) (UniProt Q03181); experiment: qHTS assay for small molecule antagonists of peroxisome proliferator-activated receptor delta signaling (AID 588535; active means well fitted inhibition curve with a large enough effect in the signal ratio, with a control signal flat, not every such curve was filed as active; the % refers to the signal ratio); conditions: HEK293T PPARd-UAS-bla, beta-lactamase FRET ratio, 18 h; at 76.7 µM (top of the series)
[2] = molecular target: Peroxisome proliferator-activated receptor gamma (Homo sapiens) (UniProt P37231); experiment: qHTS assay for small molecule antagonists of peroxisome proliferator-activated receptor gamma signaling (AID 588537; active means well fitted inhibition curve with a large enough effect in the signal ratio, with a control signal flat, not every such curve was filed as active; the % refers to the signal ratio;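 further: reporter cells co-stimulated with 50 nM rosiglitazone agonist during compound treatment; % of control where 0% means no effect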); conditions: HEK293 PPARg-UAS-bla, beta-lactamase ratio, antagonist mode; at 76.8 µM (top of the series)
How it was run: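 Antagonist-mode β-lactamase reporter screen run as a titration series. HEK293 PPARγ-UAS-bla cells are stimulated with rosiglitazone (50 nM final) for 16 h, then CCF4 is read at 460/530 nm. Data are scaled between DMSO and rosiglitazone and fitted to the Hill equation.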

Amino acid sequences for entries named in this document (tags omitted). A change or cut given only in a name is not applied to a line headed by its entry.
UniProt Q03181: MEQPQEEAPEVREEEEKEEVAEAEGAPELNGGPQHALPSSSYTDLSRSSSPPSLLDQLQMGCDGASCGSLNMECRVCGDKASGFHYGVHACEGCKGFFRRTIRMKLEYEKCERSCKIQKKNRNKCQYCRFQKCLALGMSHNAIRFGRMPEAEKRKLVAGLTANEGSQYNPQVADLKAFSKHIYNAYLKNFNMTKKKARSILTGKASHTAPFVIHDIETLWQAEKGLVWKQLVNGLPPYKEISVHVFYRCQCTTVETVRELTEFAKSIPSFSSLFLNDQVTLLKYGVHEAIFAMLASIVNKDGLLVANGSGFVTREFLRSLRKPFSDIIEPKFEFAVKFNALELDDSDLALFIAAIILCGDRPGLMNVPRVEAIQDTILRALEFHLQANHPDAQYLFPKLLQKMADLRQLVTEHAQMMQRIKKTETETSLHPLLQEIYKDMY
UniProt P19793: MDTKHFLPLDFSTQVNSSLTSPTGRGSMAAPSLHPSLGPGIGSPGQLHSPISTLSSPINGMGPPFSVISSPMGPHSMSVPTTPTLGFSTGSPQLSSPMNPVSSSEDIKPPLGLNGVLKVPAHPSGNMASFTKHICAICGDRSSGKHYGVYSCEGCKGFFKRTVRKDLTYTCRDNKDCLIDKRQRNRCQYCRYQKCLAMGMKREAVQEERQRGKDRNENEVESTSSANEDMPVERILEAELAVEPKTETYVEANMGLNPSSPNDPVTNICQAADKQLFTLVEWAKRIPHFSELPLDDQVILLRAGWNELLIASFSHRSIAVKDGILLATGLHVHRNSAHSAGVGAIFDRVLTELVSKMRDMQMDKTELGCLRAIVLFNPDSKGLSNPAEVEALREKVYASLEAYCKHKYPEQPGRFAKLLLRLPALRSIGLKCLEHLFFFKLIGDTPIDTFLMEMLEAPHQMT
UniProt Q12809: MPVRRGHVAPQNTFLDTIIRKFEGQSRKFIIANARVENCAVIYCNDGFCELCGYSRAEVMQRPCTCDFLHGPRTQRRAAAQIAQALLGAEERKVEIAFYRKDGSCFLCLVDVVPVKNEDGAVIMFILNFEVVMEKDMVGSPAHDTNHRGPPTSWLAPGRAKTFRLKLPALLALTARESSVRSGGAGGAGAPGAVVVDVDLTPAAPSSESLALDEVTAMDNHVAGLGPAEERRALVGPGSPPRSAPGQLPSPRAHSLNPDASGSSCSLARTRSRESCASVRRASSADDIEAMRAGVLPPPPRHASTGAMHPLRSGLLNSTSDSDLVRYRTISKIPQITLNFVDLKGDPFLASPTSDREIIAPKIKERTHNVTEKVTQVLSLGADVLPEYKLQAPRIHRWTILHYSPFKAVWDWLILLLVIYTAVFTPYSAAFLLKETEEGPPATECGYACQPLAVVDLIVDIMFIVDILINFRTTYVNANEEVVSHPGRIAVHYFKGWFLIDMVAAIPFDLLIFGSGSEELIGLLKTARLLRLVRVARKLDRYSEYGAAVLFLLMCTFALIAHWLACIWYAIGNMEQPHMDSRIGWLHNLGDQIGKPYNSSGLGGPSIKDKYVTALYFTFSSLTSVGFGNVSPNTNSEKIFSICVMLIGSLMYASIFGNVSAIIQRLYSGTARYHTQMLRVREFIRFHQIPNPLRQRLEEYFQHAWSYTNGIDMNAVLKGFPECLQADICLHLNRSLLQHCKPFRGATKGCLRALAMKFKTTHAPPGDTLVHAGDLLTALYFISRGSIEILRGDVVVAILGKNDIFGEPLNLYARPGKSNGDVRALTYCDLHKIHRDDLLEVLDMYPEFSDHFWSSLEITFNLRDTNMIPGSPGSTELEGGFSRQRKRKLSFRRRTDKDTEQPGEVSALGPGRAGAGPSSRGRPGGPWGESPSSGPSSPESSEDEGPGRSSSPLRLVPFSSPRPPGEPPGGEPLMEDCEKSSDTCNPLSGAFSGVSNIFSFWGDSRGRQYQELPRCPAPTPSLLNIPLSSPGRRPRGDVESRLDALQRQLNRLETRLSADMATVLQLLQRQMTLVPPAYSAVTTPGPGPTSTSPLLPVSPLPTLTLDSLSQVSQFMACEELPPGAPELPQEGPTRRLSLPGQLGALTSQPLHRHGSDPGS
UniProt P01375, whole entry, looked up: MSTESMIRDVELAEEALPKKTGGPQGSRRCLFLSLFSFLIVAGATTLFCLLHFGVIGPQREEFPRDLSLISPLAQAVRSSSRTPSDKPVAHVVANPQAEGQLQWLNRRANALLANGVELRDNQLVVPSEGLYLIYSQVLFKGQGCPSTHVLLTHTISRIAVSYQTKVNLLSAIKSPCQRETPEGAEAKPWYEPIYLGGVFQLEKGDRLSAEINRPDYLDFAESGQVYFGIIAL
UniProt Q07869: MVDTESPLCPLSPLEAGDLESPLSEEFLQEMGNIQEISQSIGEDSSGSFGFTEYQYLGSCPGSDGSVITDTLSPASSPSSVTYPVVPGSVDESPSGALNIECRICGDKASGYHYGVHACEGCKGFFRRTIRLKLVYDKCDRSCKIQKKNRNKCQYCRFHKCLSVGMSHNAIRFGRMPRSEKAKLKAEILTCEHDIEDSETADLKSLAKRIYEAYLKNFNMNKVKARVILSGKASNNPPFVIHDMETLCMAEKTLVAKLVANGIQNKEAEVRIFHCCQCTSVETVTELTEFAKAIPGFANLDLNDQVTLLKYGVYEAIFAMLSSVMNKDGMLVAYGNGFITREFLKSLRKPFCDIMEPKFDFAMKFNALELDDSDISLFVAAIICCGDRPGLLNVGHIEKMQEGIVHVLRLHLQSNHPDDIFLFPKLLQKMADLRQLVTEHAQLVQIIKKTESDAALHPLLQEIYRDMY
UniProt P51449: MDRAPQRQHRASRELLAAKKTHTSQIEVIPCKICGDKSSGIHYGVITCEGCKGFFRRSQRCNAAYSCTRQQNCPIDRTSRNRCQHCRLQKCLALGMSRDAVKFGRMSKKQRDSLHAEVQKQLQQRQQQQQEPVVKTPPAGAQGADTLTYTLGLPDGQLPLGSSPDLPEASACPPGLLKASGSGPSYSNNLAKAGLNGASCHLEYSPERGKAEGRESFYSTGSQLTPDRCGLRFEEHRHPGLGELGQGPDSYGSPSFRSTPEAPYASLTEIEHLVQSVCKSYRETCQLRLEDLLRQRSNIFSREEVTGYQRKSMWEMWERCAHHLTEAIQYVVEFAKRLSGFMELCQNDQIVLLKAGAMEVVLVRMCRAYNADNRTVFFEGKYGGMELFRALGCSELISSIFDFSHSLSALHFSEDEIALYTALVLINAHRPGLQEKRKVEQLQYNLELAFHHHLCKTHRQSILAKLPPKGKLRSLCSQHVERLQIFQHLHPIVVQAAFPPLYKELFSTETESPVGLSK

[3] = molecular target: Vitamin D3 receptor (Homo sapiens) (UniProt P11473); experiment: qHTS assay for small molecule antagonists of vitamin D receptor signaling (AID 588541; calls by dose curve;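 further: receptor activated by calcitriol during compound treatment; on the % scale 0 is the no-effect control and ±100 the full control effect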); conditions: HEK293T VDR-UAS-bla, beta-lactamase ratio, antagonist mode; at 76.7 µM (top of the series)
How it was run: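 Antagonist-mode beta-lactamase reporter assay: HEK293T VDR-UAS-bla cells were exposed to titrated compound alongside 1-alpha,25-dihydroxyvitamin D3 at 3 nM final for 16 h. Values were normalized to the 50 nM agonist control and DMSO basal, with IC50 and efficacy from Hill equation fits.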

[4] = molecular target: Vitamin D3 receptor (Homo sapiens) (UniProt P11473); experiment: qHTS assay for small molecule agonists of vitamin D receptor signaling (AID 588543; calls by dose curve;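 further: 0% = DMSO basal and 100% = reference agonist control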); conditions: HEK293T VDR-UAS-bla, beta-lactamase ratio, 16 h; at 76.8 µM (top of the series)
How it was run: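 qHTS in agonist mode: compound titrations stimulate a VDR-driven β-lactamase reporter in HEK293T cells over 16 h at 37 °C. Response normalized to 50 nM 1α,25-dihydroxyvitamin D3 = 100%, DMSO = 0%; Hill fitting gives EC50 and maximal response.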

[5] = molecular target: Retinoic acid receptor RXR-alpha (Homo sapiens) (UniProt P19793); experiment: qHTS assay for small molecule antagonists of retinoid X receptor alpha signaling (AID 588546; active means well fitted inhibition curve with a large enough effect in the signal ratio, with a control signal flat, not every such curve was filed as active; the % refers to the signal ratio;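 further: cells stimulated with 9-cis-retinoic acid as agonist; on the % scale 0 is the no-effect control and ±100 the full control effect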); conditions: HEK293T RXRa-UAS-bla, beta-lactamase ratio, antagonist mode
How it was run: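 Beta-lactamase reporter inhibition, read as CCF4 fluorescence ratio (ex 405, em 460/530 nm) after 2 h at RT. HEK293T UAS-bla cells, 2500/well, were stimulated with 9-cis-RA at 500 or 100 nM final alongside test compound for 18 h at 37 C.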

[6] = molecular target: Voltage-gated inwardly rectifying potassium channel KCNH2 (Homo sapiens) (UniProt Q12809); experiment: qHTS Assay for Small Molecule Inhibitors of the Human hERG Channel Activity (AID 588834); conditions: U2OS BacMam hERG, FluxOR thallium flux fluorescence; at 46.1 µM (top of the series) unless noted;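 further: U2OS cells transduced with hERG by BacMam; top concentration of the series differs between compounds; on the % scale 0 is the no-effect control and ±100 the full control effect; lower thallium flux fluorescence means stronger hERG block; nearly all actives have a fitted effect of over 50% in size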
[7] = S16 Schwann cell viability assay (CellTiter-Glo assay) (AID 624031); conditions: S16 rat Schwann cells viability, 24 h; at 57.5 µM (top of the series);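 further: native untransfected S16 rat Schwann cells; cellular ATP luminescence as a viability measure; plate controls were DMSO-treated cells for no effect and cell-free wells for full effect; nearly all actives have a fitted effect of over 70% in size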
How it was run: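 Parental S16 cells, 24 h compound, 37 °C. ATP-luminescence viability; DMSO = 0% activity, empty wells as reference; curves classified by fit quality and efficacy.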

[8] = S16 Schwann cell PMP22 intronic element firefly luciferase assay (AID 624032); conditions: S16 rat Schwann cells, PMP22 element FLuc, 24 h; at 57.5 µM (top of the series);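 further: plate controls were DMSO for no effect and PTC124 positive control mean for full effect; nearly all actives have a fitted effect of over 30% in size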
[9] = qHTS assay for small molecule activators of the p53 signaling pathway (AID 651743; active means well fitted activation curve with a large enough effect in the signal ratio, not every such curve was filed as active; the % refers to the signal ratio; further: % of control where 0% means no effect); conditions: HCT-116 p53RE-bla, beta-lactamase FRET ratio, 16 h; activation: stronger effect = higher value
[10] = molecular target: Tumor necrosis factor (Homo sapiens) (UniProt P01375); experiment: qHTS assay to identify small molecules that stimulate Tumor Necrosis Factor-alpha (TNF-alpha) secretion (AID 651757; active means well fitted curve in the direction sought with a large enough effect in the signal ratio; the % refers to the signal ratio; further: 0% is about no effect); conditions: Human cells, HTRF 665/615 ratio; at 92.2 µM (top of the series)
How it was run: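 Human monocytic THP-1 cells are plated, treated with compound and held at 37 C for 17 hrs. Labeled anti-TNF-alpha antibody mixture is then added; after 3 hr at room temperature, TR-FRET signal reports secreted TNF-alpha.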

[11] = qHTS assay for environmental chemicals that activate the Aryl hydrocarbon Receptor (AhR) signaling pathway (AID 651777); conditions: 1A2-DRE human hepatoma cells, luciferase, 24 h; stronger effect = higher value; further: % of control where 0% means no effect; nearly all actives have a fitted effect of over 15% in size
How it was run: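 Reporter gene assay: hepatoma cells with DRE/CYP1A2-luciferase, 24 hr compound incubation at 37 C, 5% CO2, luminescence after One-Glo (30 min, RT).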

[12] = molecular target: Peroxisome proliferator-activated receptor alpha (Homo sapiens) (UniProt Q07869); experiment: qHTS assay for small molecule agonists of the peroxisome proliferator-activated receptor alpha (PPARalpha) signaling pathway (AID 651778); conditions: PathHunter PPARalpha complementation, chemiluminescence, 6 h; stronger effect = higher value; further: % of control where 0% means no effect
[13] = molecular target: Nuclear receptor ROR-gamma (Homo sapiens) (UniProt P51449); experiment: qHTS assay for small molecule antagonists of the retinoid-related orphan receptor gamma (ROR-gamma) signaling pathway (AID 651802);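 further: CHO cells with doxycycline-induced ROR-gamma expression; luciferase reporter luminescence driven by ROR response element; on the % scale 0 is the no-effect control and ±100 the full control effect; nearly all actives have a fitted effect of over 60% in size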
[14] = qHTS assay for small molecule agonists of the antioxidant response element (ARE) signaling pathway measured by Nrf2-dependant transcriptional activity (AID 720636; active means well fitted curve in the direction sought with a large enough effect in the repeat runs; an effect the other way counts as inactive or inconclusive;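 further: HepG2 cells with an ARE-driven luciferase reporter; % of control where 0% means no effect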); conditions: ARE-luc HepG2, Nrf2 luciferase reporter, 16 h; at 92.4 µM (top of the series)
[15] = qHTS assay for small molecule antagonists of the retinoid-related orphan receptor gamma (ROR-gamma) signaling pathway - cell viability counter screen (AID 720652; active means well fitted curve in the direction sought with a large enough effect in the repeat runs; an effect the other way counts as inactive or inconclusive;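 further: CHO reporter cells with doxycycline-induced ROR-gamma expression; compound exposure lasted 16 hr before ATP read; on the % scale 0 is the no-effect control and ±100 the full control effect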); conditions: RORgamma reporter cell line viability counter screen; at 92.2 µM (top of the series)
[16] = qHTS assay for small molecule agonists of the antioxidant response element (ARE) signaling pathway measured by Nrf2-dependant transcriptional activity - cell viability counter screen (AID 720653; active means well fitted curve in the direction sought with a large enough effect in the repeat runs; an effect the other way counts as inactive or inconclusive; further: on the % scale 0 is the no-effect control and ±100 the full control effect); conditions: ARE-bla HepG2 viability, CellTiter-Glo ATP luminescence, 16 h; stronger effect = lower value
How it was run: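 Cytotoxicity counter screen: intracellular ATP quantified by CellTiter-Glo luminescence in the same ARE-bla HepG2 plates, after 16 h compound exposure and a 2 h beta-lactamase substrate step.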

[17] = qHTS Assay for Identifying Gametocytocidal Compounds (AID 743244);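 further: on the % scale 0 is the no-effect control and ±100 the full control effect; actives lower the fluorescent signal which means gametocytes are killed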; conditions: P. falciparum 3D7 stage III-V gametocytes, alamarBlue, 72 h; max response: stronger effect = lower value
[18] = qHTS assay for cell viability of HEK293 cells (AID 743288); conditions: ATP luminescence (CellTiter-Glo), 18 h; max response: stronger effect = lower value; further: on the % scale 0 is the no-effect control and ±100 the full control effect; nearly all actives have a fitted effect of over 50% in size
How it was run: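 Quantitative high-throughput screen: compounds were pinned onto parental HEK293 cells (2,000 per well) after a minimum 5 h settling at 37 C, incubated 18 h at 37 C, and intracellular ATP measured by luciferase luminescence.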

[19] = qHTS assay for cell viability of the p53RE-bla HCT-116 cell line (AID 743292); further: on the % scale 0 is the no-effect control and ±100 the full control effect; nearly all actives have a fitted effect of over 55% in size
How it was run: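 ATP-based luminescence, 16 h compound exposure at 37 C, p53RE-bla HCT-116 cells at 4,000/well.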

[20] = qHTS assay to identify small molecule inhibitors of chordoma cells - UCH-1 (AID 1259355); conditions: UCH-1 chordoma viability, CellTiter-Glo, 48 h, combination, with auranofin plus four topoisomerase inhibitors; at 46.1 µM (top of the series); further: on the % scale 0 is the no-effect control and ±100 the full control effect; nearly all actives have a fitted effect of over 55% in size
How it was run: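 800 cells/well, overnight attach; compounds pinned at 15 concs, then auranofin/camptothecin/doxorubicin/rubitecan/topotecan combo added; 48hr 37 C, 5% CO2; CellTiter-Glo, 30min RT, luminescence.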

[21] = qHTS assay to identify small molecule inhibitors of chordoma cells - UCH-2 (AID 1259356); conditions: UCH-2 chordoma viability, CellTiter-Glo ATP luminescence, 48 h; at 46.1 µM (top of the series); further: on the % scale 0 is the no-effect control and ±100 the full control effect
[22] = P-glycoprotein substrates identified in KB-8-5-11 adenocarcinoma cell line, qHTS therapeutic library screen (AID 1346987); conditions: KB-8-5-11 (P-gp overexpressing) viability, CellTiter-Glo, 72 h; at 44.5 µM (top of the series) unless noted; further: on the % scale 0 is the no-effect control and ±100 the full control effect; nearly all actives have a fitted effect of over 65% in size
[23] = qHTS of pediatric cancer cell lines to identify multiple opportunities for drug repurposing: Primary screen for TC32 cells (AID 1347089); conditions: TC32 Ewing sarcoma viability, CellTiter-Glo luminescence, 48 h; at 45.8 µM (top of the series) unless noted; further: on the % scale 0 is the no-effect control and ±100 the full control effect; nearly all actives have a fitted effect of over 60% in size
[24] = qHTS of pediatric cancer cell lines to identify multiple opportunities for drug repurposing: Primary screen for DAOY cells (AID 1347090);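 further: plate controls were DMSO for no effect and bortezomib for full effect; nearly all actives have a fitted effect of over 55% in size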
[25] = qHTS of pediatric cancer cell lines to identify multiple opportunities for drug repurposing: Primary screen for SJ-GBM2 cells (AID 1347091); conditions: SJ-GBM2 viability, CellTiter-Glo luminescence, 48 h; at 46 µM (top of the series) unless noted;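 further: plate controls were DMSO neutral control for no effect and bortezomib for full effect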
[26] = qHTS of pediatric cancer cell lines to identify multiple opportunities for drug repurposing: Primary screen for A673 cells (AID 1347092); conditions: A673 Ewing sarcoma viability, CellTiter-Glo ATP luminescence, 48 h; at 46 µM (top of the series) unless noted; further: on the % scale 0 is the no-effect control and ±100 the full control effect; nearly all actives have a fitted effect of over 45% in size
[27] = qHTS of pediatric cancer cell lines to identify multiple opportunities for drug repurposing: Primary screen for SK-N-MC cells (AID 1347093); conditions: SK-N-MC viability, CellTiter-Glo luminescence, 48 h; at 46 µM (top of the series) unless noted;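 further: plate controls were DMSO neutral control for no effect and bortezomib for full effect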
[28] = qHTS of pediatric cancer cell lines to identify multiple opportunities for drug repurposing: Primary screen for BT-37 cells (AID 1347094); conditions: BT-37 viability, CellTiter-Glo luminescence, 48 h; at 57.3 µM (top of the series) unless noted;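 further: plate controls were DMSO for no effect and bortezomib for full effect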
[29] = qHTS of pediatric cancer cell lines to identify multiple opportunities for drug repurposing: Primary screen for NB-EBc1 cells (AID 1347095); conditions: NB-EBc1 neuroblastoma viability, CellTiter-Glo luminescence, 48 h; at 46 µM (top of the series) unless noted;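 further: plate controls were DMSO neutral control for no effect and bortezomib for full effect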
[30] = qHTS of pediatric cancer cell lines to identify multiple opportunities for drug repurposing: Primary screen for U-2 OS cells (AID 1347096); conditions: U-2 OS viability, CellTiter-Glo luminescence, 48 h; at 46 µM (top of the series) unless noted;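 further: plate controls were DMSO wells for no effect and bortezomib positive control wells for full effect; nearly all actives have a fitted effect of over 50% in size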
[31] = qHTS of pediatric cancer cell lines to identify multiple opportunities for drug repurposing: Primary screen for Saos-2 cells (AID 1347097); conditions: Saos-2 viability, CellTiter-Glo ATP luminescence, 48 h; at 46 µM (top of the series) unless noted; further: on the % scale 0 is the no-effect control and ±100 the full control effect; nearly all actives have a fitted effect of over 40% in size

NC(=O)Nc1ccc([As](=O)(O)O)cc1
inactive: activity change, negative = inhibition [1] -18.4% | activity, negative = inhibition [2] 9.61% | activity change, negative = inhibition [3] 3.51% | activation [4] -0.342% | max response [5] 5.1% | activity change, negative = inhibition [6] 0.429% [at 92.2 µM] | activity change, negative = cytotoxicity [7] 8.8% | activity change, negative = inhibition [8] 0.369% | activation [9] 1.05% | activation (TNF-alpha secretion) [10] 0.929% | activation [11] 0.519% | max response [12] -1.01% | Potency [13] | activation [14] -0.823% | activity change, negative = cytotoxicity [15] -2.84% | max response [16] -1.29% | max response [17] -3.38% | max response [18] -3.22% | Potency [19] | activity, negative = inhibition [20] -20.9% | activity change, negative = inhibition [21] 0% | activity change, negative = cytotoxicity [22] -3.56% | activity change, negative = cytotoxic [23] 3.98% | Potency [24] | activity change, negative = cytotoxic [25] 22.7% | activity change, negative = cytotoxic [26] 12% | activity change, negative = cytotoxic [27] -5.53% | activity change, negative = cytotoxic [28] 0.562% | activity change, negative = cytotoxic [29] 10.2% | activity change, negative = cytotoxic [30] 3.14% | activity change, negative = cytotoxic [31] 7.05%
